Assay: in vivo
Details: C57BL6, mouse, brain/plasma, oral

Cc1nc(Nc2ncc(C(=O)Nc3c(C)cccc3Cl)s2)cc(N2CCN(CCO)CC2)n1 [Dasatinib, dasatinib] showed a Kp at 1 h of 0.04 and a Kp at 4 h of 0.11.

— patent US11813252B2 (dated 2023)
